Publication PMC7743948, “D-LL-31 enhances biofilm-eradicating effect of currently used antibiotics for chronic rhinosinusitis and its immunomodulatory activity on human lung epithelial cells” (PLoS ONE, 2020)

System: P. aeruginosa
Test: Broth microdilution MIC/MBC of conventional antibiotics, planktonic form
Assay type: cell-based, Pseudomonas aeruginosa
Settings: MHB, 5 x 10^5 CFU/ml, 37 °C, 24 h, CLSI
Experimental: MICs and MBCs of conventional antibiotics were determined using a broth microdilution technique. […] Only P. aeruginosa was additionally tested for susceptibility to TOB (Sigma-Aldrich) (0.03–52 μM or 0.01–25 μg/ml). Bacterial suspensions (5 x 10^5 CFU/ml) were added to the microtiter plates, which were then incubated at 37 °C for 24 h. Antibiotic-free culture was used as a control. […] The results were confirmed using a microplate reader at OD620 (Sunrise™, TECAN, Australia). The plate count technique was further used to determine the MBC values on Mueller Hinton agar (MHA) (Himedia®). Each experiment was performed independently three times in triplicate.

## CC1(C)S[C@@H]2[C@H](NC(=O)[C@H](N)c3ccc(O)cc3)C(=O)N2[C@H]1C(=O)O [AMX, amoxicillin]
  MIC: 6250 µg/mL
